Results as given in patent US20250114325A1 (JIANGSU PROVINCE HOSPITAL OF CHINESE MEDICINE, priority 2022, published 2025).

Experiments:
Hela cells = assay: Cell proliferation experiment (CCK-8 cell viability); assay type: cell-based, human
Method: (§1) Assay of cell viability by CCK-8 kit: Cells (cell density: 1000 cells/well) were inoculated in a 96-well plate and cultured for 24 hours. […] Cell proliferation was detected using Cell Counting Kit-8 (CCK-8).

SiHa cells = assay: as above; assay type: cell-based, human
Method: as §1

P2X7 receptor protein [1] = tested on: P2X7 receptor protein
P2X7 receptor protein [2] = tested on: P2X7 receptor protein; remark: listed apart in the source

C=C1CCC[C@]2(C)C=C3OC(=O)C(C)=C3C[C@@H]12 [Atr-I, Atractylenolide I]
optimal inhibitory concentration against Hela cells (Hela cells): 40 µM
optimal inhibitory concentration against SiHa cells (SiHa cells): 80 µM
expression of P2X7 receptor protein in Hela cells (P2X7 receptor protein [1]): Reduced expression of P2X7 receptor protein
expression of P2X7 receptor protein in SiHa cells (P2X7 receptor protein [2]): Reduced expression of P2X7 receptor protein
